How the values were obtained:
BRD4 (BD1) protein = BRD4 (BD1) protein (Homo sapiens, UniProt O60885); assay: BRD4 bromodomain TR-FRET inhibitory activity assay; settings: read-out: BRD4 (BD1) IC50, Table 4
CBP BRD protein = CBP BRD protein (Homo sapiens, UniProt Q92793); assay: CBP bromodomain TR-FRET inhibitory activity assay; settings: read-out: CBP BRD IC50, Table 3

Protein sequences, listed by entry. Tags and fused reporters are not part of them. Residues count along the entry.
UniProt Q92793, 1085-1192 limits assumed: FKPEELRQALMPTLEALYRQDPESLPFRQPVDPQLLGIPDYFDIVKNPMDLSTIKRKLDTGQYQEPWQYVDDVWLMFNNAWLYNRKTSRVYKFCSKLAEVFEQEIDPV

| SMILES | IC50 (BRD4 (BD1) protein) [nM] | IC50 (CBP BRD protein) [nM] |
| --- | --- | --- |
| CC(=O)N1CCC(c2cc(-n3c(-c4cncn4C)nc4cc(-c5cnn(C)c5)c(F)cc43)cc3c2n(C)c(=O)n3C)CC1 | > 5000 | < 500 |
| Cc1ncc(-c2cc3nc(C(C)(C)C)n(-c4cc(OC5COC5)c5c(c4)n(C)c(=O)n5C)c3cc2C(F)F)s1 | > 5000 | < 500 |
| Cc1ncc(-c2cc3nc(-c4cncn4C)n(-c4cc(N5CCOCC5)c5c(c4)n(C)c(=O)n5C)c3cc2F)s1 | > 5000 | < 500 |
| Cn1cc(-c2cc3nc(-c4cncn4C)n(-c4cc(N5CC(C)(O)C5)c5c(c4)n(C)c(=O)n5C)c3cc2C(F)(F)F)cn1 | 500 to 5000 | < 500 |
| Cn1cncc1-c1nc2cc(-c3ccc(N)cc3)c(F)cc2n1-c1ccc2c(c1)n(C)c(=O)n2C | 500 to 5000 | < 500 |
| CCOC1(C)CN(c2cc(-n3c(C(C)(C)C)nc4cc(-c5cnn(C)c5)c(C(F)F)cc43)cc3c2n(C)c(=O)n3C)C1 | > 5000 | < 500 |
| Cn1cc(-c2cc3nc(-c4cncn4C)n(-c4cc(N5CCOCC5)c5c(c4)n(C)c(=O)n5C)c3cc2C(F)F)cn1 | > 5000 | < 500 |
| Cn1c(=O)n(C)c2c(N3CCOCC3)cc(-n3c(C(C)(C)C)nc4cc(C(=O)Nc5ccccc5)c(F)cc43)cc21 | > 5000 | < 500 |
| CC(C)Nc1cc(-n2c(C(C)(C)C)nc3cc(-c4cnn(C)c4)c(C#N)cc32)cc2c1n(C)c(=O)n2C | > 5000 | < 500 |
| CCCNc1cc(-n2c(-c3cncn3C)nc3cc(-c4ccc(NC(C)=O)cc4)c(F)cc32)cc2c1n(C)c(=O)n2C | > 5000 | < 500 |
| COC(=O)c1cc2c(cc1-c1cnn(C)c1)nc(C)n2-c1ccc2c(c1)n(C)c(=O)n2C | > 5000 | > 5000 |
| Cn1cc(-c2cc3nc(-c4cncn4C)n(-c4cc(N5CC(C)(O)C5)c5c(c4)n(C)c(=O)n5C)c3cc2F)cn1 | 500 to 5000 | < 500 |

Continued, values first:

| IC50 (BRD4 (BD1) protein) [nM] | IC50 (CBP BRD protein) [nM] | SMILES |
| --- | --- | --- |
| < 500 | < 500 | Cn1cc(-c2cc3nc(C(C)(C)C)n(-c4cc(N5CC6C[C@H]5CO6)c5c(c4)n(C)c(=O)n5C)c3cc2C(F)F)cn1 |
| > 5000 | < 500 | Cn1cc(-c2cc3nc(C(C)(C)C)n(-c4cc(C5CCC(=O)CC5)c5c(c4)n(C)c(=O)n5C)c3cc2C(F)F)cn1 |
| 500 to 5000 | < 500 | Cn1cc(-c2cc3nc(C(C)(C)C)n(-c4cc(N5CCC(C)(O)CC5)c5c(c4)n(C)c(=O)n5C)c3cc2Cl)cn1 |
| 500 to 5000 | < 500 | C[C@@H]1CCN1c1cc(-n2c(-c3cncn3C)nc3cc(-c4cnn(C)c4)c(F)cc32)cc2c1n(C)c(=O)n2C |
| > 5000 | > 5000 | Cn1cc(-c2cc3nc(C(C)(C)C)n(-c4cc(N5CC(C)(O)C5)c5c(c4)n(C)c(=O)n5C)c3cc2NC(=O)OC(C)(C)C)cn1 |
| > 5000 | < 500 | C#CC(C)(C)c1nc2cc(-c3cnn(C)c3)c(F)cc2n1-c1cc(N2CCOCC2)c2c(c1)n(C)c(=O)n2C |
| > 5000 | < 500 | COC1(C)CN(c2cc(-n3c(C(C)(C)C)nc4cc(-c5cnn(C)c5)c(C#N)cc43)cc3c2n(C)c(=O)n3C)C1 |
| > 5000 | < 500 | CC(=O)N1CCC(Oc2cc(-n3c(C(C)(C)C)nc4cc(-c5cnn(C)c5)c(F)cc43)cc3c2n(C)c(=O)n3C)CC1 |
| > 5000 | < 500 | Cn1cc(-c2cc3nc(-c4cncn4C)n(-c4cc(OC5COC5)c5c(c4)n(C)c(=O)n5C)c3cc2C(F)F)cn1 |
| 500 to 5000 | 500 to 5000 | COC(=O)c1cc2c(cc1-c1cnn(C)c1)nc(-c1c[nH]c3cc(C)ccc13)n2-c1ccc2c(c1)n(C)c(=O)n2C |
| > 5000 | < 500 | Cn1cc(-c2cc3nc(C(C)(C)C)n(-c4cc(N5CC(C)(O)C5)c5c(c4)n(C)c(=O)n5C)c3cc2F)cn1 |
| 500 to 5000 | < 500 | Cn1cc(-c2cc3nc(-c4cncn4C)n(-c4cc(N5CCC5)c5c(c4)n(C)c(=O)n5C)c3cc2C(F)F)cn1 |

— EP4831169A1, “NOVEL COMPOUND USED AS CBP/P300 INHIBITOR, AND PHARMACEUTICAL COMPOSITION FOR PREVENTING OR TREATING CANCER, INFLAMMATORY DISORDERS, OR AUTOIMMUNE DISEASES COMPRISING SAME AS ACTIVE INGREDIENT” (dated 2026)
